Values quoted from earlier work as cited in US20150148324A1, “FORMULATIONS FOR THE PREPARATION OF IMMEDIATE RELEASE TABLETS FOR ORAL ADMINISTRATION CONTAINING LOW-DOSE MIFEPRISTONE, TABLETS THUS OBTAINED AND THEIR PREPARATION PROCESS” (VALPHARMA INTERNATIONAL S.P.A., priority 2012, published 2015).

Molecular target: T1, progesterone receptor (Homo sapiens, UniProt P06401)
T1 sequence (P06401 1-933): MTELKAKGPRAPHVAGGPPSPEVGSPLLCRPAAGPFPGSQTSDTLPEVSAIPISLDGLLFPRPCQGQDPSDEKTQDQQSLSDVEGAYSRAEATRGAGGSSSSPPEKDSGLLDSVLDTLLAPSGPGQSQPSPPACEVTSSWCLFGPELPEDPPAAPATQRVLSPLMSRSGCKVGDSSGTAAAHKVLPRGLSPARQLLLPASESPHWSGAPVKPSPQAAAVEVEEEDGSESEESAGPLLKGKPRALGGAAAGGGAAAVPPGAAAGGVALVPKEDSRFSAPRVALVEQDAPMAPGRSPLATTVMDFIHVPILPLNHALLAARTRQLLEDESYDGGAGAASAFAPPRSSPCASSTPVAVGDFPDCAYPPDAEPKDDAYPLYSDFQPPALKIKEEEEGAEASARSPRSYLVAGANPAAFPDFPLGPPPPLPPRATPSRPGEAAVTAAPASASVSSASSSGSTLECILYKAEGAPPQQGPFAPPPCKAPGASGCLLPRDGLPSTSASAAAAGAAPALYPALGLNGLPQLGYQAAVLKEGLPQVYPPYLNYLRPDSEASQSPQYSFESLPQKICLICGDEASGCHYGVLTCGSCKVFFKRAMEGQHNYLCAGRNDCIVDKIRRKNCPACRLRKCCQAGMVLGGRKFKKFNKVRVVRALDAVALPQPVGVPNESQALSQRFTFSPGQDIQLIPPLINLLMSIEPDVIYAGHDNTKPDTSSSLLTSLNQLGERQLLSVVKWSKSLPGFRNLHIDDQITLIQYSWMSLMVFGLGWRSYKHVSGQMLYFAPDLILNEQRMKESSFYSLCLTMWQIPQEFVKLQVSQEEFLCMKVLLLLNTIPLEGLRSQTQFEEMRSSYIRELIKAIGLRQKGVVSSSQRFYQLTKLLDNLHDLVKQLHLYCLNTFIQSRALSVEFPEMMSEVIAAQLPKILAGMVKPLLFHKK
Details: endometrial level; relative to progesterone

ability to bind with the progesterone receptor, with respect to progesterone itself: 5 times higher
Compound: CC#C[C@]1(O)CC[C@H]2[C@@H]3CCC4=CC(=O)CCC4=C3[C@@H](c3ccc(N(C)C)cc3)C[C@@]21C [Mifepristone]
